Data on four compounds can be found in PubChem BioAssay AID904 (National Center for Advancing Translational Sciences (NCATS), 2007).

The structures appear in SMILES notation. The entries are a selection whose mix differs from that of the whole data set. Inconclusive results are not listed. The source made the active and inactive calls. The call rests on the fitted dose curve; in most records, active means well fitted cell-killing curve with a large enough effect; inconclusive means small, poorly fitted or top-dose-only effect; inactive means no such curve, though single readings can be large or run the other way.

A short description of this assay: qHTS Screen for Compounds that Selectively Target Cancer Cells with p53 Mutations: Cytotoxicity of p53 Null Cells at the Nonpermissive Temperature.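 Further: 0% = DMSO only and -100% = full killing by 100 µM tamoxifen; nearly all actives have a fitted effect of over 50% in size.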 As to conditions: H1299 p53-null (neo) cells, 39C, ATPlite viability, 24 h; at 46.1 µM (top of the series) unless noted. The text has this: NIH Chemical Genomics Center [NCGC] NIH Molecular Libraries Screening Centers Network [MLSCN] MLSCN Grant: 1 X01 MH079844-01 Assay Submitter (PI): Dr. SUN, YI, University of Michigan NCGC Assay Overview: Synthetic Lethal Screen for Compounds to Kill Cancer Cells with p53 Mutation. Tumor suppressor gene p53 serves as a major cellular barrier against tumorigenesis. […] The goal of this screening is to identify small molecule probes that selectively kill cancer cells with mutations in p53. This screening was carried out using two lines of H1299 lung cancer cells. The H1299-p53 A138V line express a temperature sensitive p53 mutant (p53ts) in which the mutant p53 protein (A138V) is in the mutant confirmation when grown at 39C (the nonpermissive temperature) and in the wild type conformation when grown at 32C (the permissive temperature). A H1299-neo line (p53 null) grown at both 39C and 32C were used as counter-screens to filter out false positive associated with temperature shifting. The small molecular compounds that selectively target mutant p53-containing cancer cells were selected as candidate probes for further study. A cytotoxicity assay based on the measurement of ATP contents in cells was used in this screen. Concentration-responses of all the compounds in the library collection were determined in qHTS using the cell lines and temperature conditions as above.
NCGC Assay Protocol Summary: Both the H1299-p53A138V and H1299-neo cell lines were provided by Dr.Yi Sun, a PI at the University Michigan. The cells were maintained and cultured at 37C. The resuspended frozen cells were used to plate the cells in the 1536-well assay plates at a density of 600 cells per well in 5 ul medium. The assay plates with the cells were incubated at 37C for 16 to 30 hours before the experiments. The library compounds in DMSO solution were added to the cells in assay plates and incubated 24 hours at 39C (for mutant p53 conformation) or 32C (for normal p53 conformation as control). An ATP_lite assay kit (PerkinElmer) was used to determine the cell viability. Tomaxifen (100uM) was used as the positive control for cell killing. Data were normalized to the controls for basal activity (DMSO only) and 100% killing (100uM tamoxifen). AC50 values were determined from concentration-response data modeled with the standard Hill equation. P53 assay protocol: 1. Reagent; 5 uL H1299-p53A138V or H1299-neo cell cells/well 2. Time; overnight; 37C incubation 3. Compounds; 23 nL; 5.9 nM to 46 uM 4. Controls; 23 nL; Tamoxifen 100 uM 5. Time; 24 hr; 39C incubation 6. Reagent; 3 uL; ATP_Lite reagent 7. Time; 20 min; Room Temperature 8. Detection; Luminescence; Viewlux plate reader Keywords: p53, synthetic lethal, cancer, cell viability, cytotoxicity, H1299 cell line, luminescence, MLSMR, MLSCN, NIH Roadmap, qHTS, NCGC
Regarding `CN1CCCC(OC(=O)C(c2ccccc2)c2ccccc2)C1` (centres undefined), the activity, negative = cell killing is inactive: -9.06%.
Turning to `Cc1cc(SC(NC(=O)c2ccc(F)cc2)C(Cl)(Cl)Cl)ncn1` (centres undefined), the activity, negative = cell killing was inactive: -0.0252% [at 1.84 µM].
In the case of `CCC(C)N(CC(C)C)C(=S)SC(NC(C)=O)C(Cl)(Cl)Cl` (centres undefined) it was inactive: -24.9%; in that of `Cc1c2c(nc3ccccc13)SC(C(Cl)Cl)C2` (centres undefined), inactive: 24.2%.
